These are literature values, as cited in US7135196B2, “Iron compositions” (Vitra Pharmaceuticals Limited, priority 2000, dated 2006).

The conditions of this data set: given on an empty stomach.

Regarding ferrous sulphate, the absorption rate was 30%.
